Molecular target: Maternal embryonic leucine zipper kinase (Homo sapiens, UniProt Q14680)
Experiment: Inhibition of recombinant C-terminal His6-tagged human MELK expressed in Escherichia coli BL21 (DE3) RIL using FAM-GS-derived peptide as substrate after 3 hrs by IMAP method

The chains behind the UniProt entries cited, without tags or fusion partners. Where a name states a change or a piece, a line headed by the entry shows the natural chain unless it says otherwise.
UniProt Q14680: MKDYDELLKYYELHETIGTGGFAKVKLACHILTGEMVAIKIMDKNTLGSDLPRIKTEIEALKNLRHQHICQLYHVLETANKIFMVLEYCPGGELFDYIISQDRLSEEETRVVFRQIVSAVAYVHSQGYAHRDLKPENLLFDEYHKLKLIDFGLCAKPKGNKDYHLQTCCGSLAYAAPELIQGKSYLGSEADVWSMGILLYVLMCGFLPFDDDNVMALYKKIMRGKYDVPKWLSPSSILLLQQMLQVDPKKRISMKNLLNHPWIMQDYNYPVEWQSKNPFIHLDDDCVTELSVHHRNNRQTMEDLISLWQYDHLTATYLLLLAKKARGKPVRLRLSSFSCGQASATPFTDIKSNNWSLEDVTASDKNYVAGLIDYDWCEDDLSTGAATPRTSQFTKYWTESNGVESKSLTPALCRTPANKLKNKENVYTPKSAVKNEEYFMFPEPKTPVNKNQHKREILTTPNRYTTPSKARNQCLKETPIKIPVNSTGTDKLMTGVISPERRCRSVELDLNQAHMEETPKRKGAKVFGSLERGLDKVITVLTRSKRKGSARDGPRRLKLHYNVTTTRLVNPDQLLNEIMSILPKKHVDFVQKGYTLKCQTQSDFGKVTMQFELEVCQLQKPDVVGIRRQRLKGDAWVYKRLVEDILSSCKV

Q: For CC(=O)c1cnc2ccc(-c3cc(Cl)c(O)c(Cl)c3)nc2c1N[C@H]1CC[C@H](CN(C)C)CC1, which IC50 is on record?
A: 0.41 nM
